# Screens deposited in PubChem BioAssay by Broad Institute.
# Only some compounds are listed: those with a hit (about 1.5% of all), similar ones and a draw of the others.
# Yeast UUG start: modulators of start codon recognition fidelity in yeast; AID 602363; activity score, % at 18.7 µM; S. cerevisiae UUG-firefly luciferase reporter, luminescence/redox ratio; 0.13% of 350,000 active;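 active = replicate mean at a twofold rise or more, about +100% in these data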;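 note: firefly luciferase made from a UUG start codon reports start codon fidelity; reporter light over untreated wells divided by growth signal over untreated wells; some hits fall short of that in this replicate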
# RAD52 anneal inh: RAD52 (human) annealing inhibition; hit rate 0.46% among 360,000; recombinant RAD52 DNA annealing, FRET fluorescence; inhibition, % at 18.7 µM; AID 651710; P43351;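 active = every replicate showing at least 50% inhibition; inconclusive = mean inhibition at least 50% but not in every replicate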
# PglD DTNB: PglD (C. jejuni) enzyme inhibition; purified PglD enzyme, DTNB colorimetric CoA detection; inhibition, % at 12.5 µM; hit rate 0.098% among 360,000; in the data active = inhibition above about 16%, passing the limit was not always enough; inconclusive = no clear call, values can overlap the other calls
# INS-1E GSIS act: GLuc luminescence reporter in INS-1E cells, primary screen for activators of glucose-dependent secretion of insulin | INS-1E GLuc reporter insulin secretion, 2-3 h | activation, % at 16.6 µM | hit rate 0.61% among 370,000;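 active = lowest replicate activation of at least 40%, so every replicate reaches that level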;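 note: 0% = median of neutral control wells and 100% = median of IBMX positive control wells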
# Casp6 inh: inhibitors of human caspase-6; P55212; purified caspase-6, Z-VEID-R110 cleavage fluorescence; inhibition, % at 12.5 µM; hit rate 0.53% among 350,000; AID 686996;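 active = mean inhibition across replicates at least about 35%, with every replicate also reaching that limit, limit read from the data; inconclusive = only one of the two criteria met; inactive = neither criterion met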;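 note: 0% = median of neutral control wells and 100% = no fluorescence left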
# RAD54 inh: RAD54 (human) branch migration inhibition; Q92698; RAD54 Holliday junction branch migration, FAM/BHQ fluorescence; AID 602329; inhibition, % at 10.4 µM; hit rate 0.14% among 360,000;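 active = mean normalized replicate activity at least 40 and at least half of replicates scoring 40 or more; inconclusive = only one of the two criteria met; inactive = mean below 40 and under half of replicates reaching 40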;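 note: 0% = median of neutral control wells and 100% = median of positive control wells; inhibitors cause a drop in the FAM fluorescence signal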
# DNA binding: DNA binding artifact in Rad54 counter-screen | shares compounds with RAD54 inh | Acridine orange-DNA displacement, fluorescence polarization, 20 min | AC50, µM (doses to about 35 µM), for inactives: at the highest dose activity change, negative = DNA binding | hit rate 8% among 460;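 active = signal drop giving an AC50 within twice the top valid tested concentration of each sample, actives reach about 35 µM in these data; inactive = activity opposite to expected, plus the rest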;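 note: polarization loss reports compound binding to salmon sperm DNA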
# RAD52 DNA ctr: counter-screen for RAD52 inhibitors: DNA binding compounds. shares compounds with RAD52 anneal inh. Salmon sperm DNA/acridine orange FP displacement. AC50, µM. hit rate 8% among 1,000. AID 652128;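 active = fitted half-maximal concentration for signal loss at or below twice the highest dose tested, in every separate run, actives reach about 64 µM in these data; inconclusive = runs disagree, or flat partial signal loss, or poor fit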
# Numbers without * were called inactive; i = inactive; ? = inconclusive; / = no result.
entry	Structure	Yeast UUG start	RAD52 anneal inh	PglD DTNB	INS-1E GSIS act	Casp6 inh	RAD54 inh	DNA binding	RAD52 DNA ctr
1	COc1ccc(Nc2c3ccccc3nc3ccccc23)cc1	3	73*	0	25	1	101*	27µM*	11µM*
2	COc1cc(Nc2c3ccccc3nc3ccccc23)cc(OC)c1OC	17	55*	3	-15	3	76*	-13%	i
3	c1ccc2c(NCCc3c[nH]c4ccccc34)c3ccccc3nc2c1	-18	97*	-5	-16	-3	93*	36µM*	41µM*
4	Oc1cccc(Nc2c3ccccc3nc3ccccc23)c1	-2	82*	1	-25	-1	57*	30µM*	?
5	Fc1cccc(NCCc2c[nH]c3ccccc23)n1	-2	6	4	-14	2	10	/	/
6	CN(C)CC(=O)Nc1ccc2c(c1)[C@@H]1C[C@@H](CC(=O)NCc3cccc(F)c3)O[C@H](CO)[C@@H]1O2	5	-14	1	-2	1	-7	/	/
7	COC(=O)C[C@H]1CC[C@H]2[C@H](COc3ccc(NC(=O)c4ccc(C(F)(F)F)cc4)cc3C(=O)N2C)O1	6	-2	2	-21	2	8	/	/
8	CC1CCCCN1Cc1c(O)ccc2c(=O)c(-c3nc4ccccc4s3)coc12 (configuration not stated)	1	-32	0	-6	7	1	/	/
9	COc1nc(NCCc2ccc(OC)c(OC)c2)nc(OC)n1	-8	/	4	/	/	3	/	/
10	COc1ccc(CCNc2c3ccccc3nc3ccccc23)cc1OC	13	83*	-7	8	-4	100*	-12%	i
11	CCOC(=O)c1cnc2ccc(OC)cc2c1Nc1ccc(N2CCN(C)CC2)cc1	-5	88*	-9	-7	-25	72*	4%	i
12	CCOC(=O)c1ccc2ncc(C(=O)OCC)c(Nc3ccc(N4CCOCC4)cc3)c2c1	/	-3	/	13	2	/	/	/
13	CCCN1CCN(C(=S)Nc2ccc3nc(N4CCN(CC)CC4)cc(C)c3c2)CC1	-20	89*	-10	-5	-50	62*	3%	i
14	CCN1CCN(c2cc(C)c3cc(NC(=S)N4CCC5(CC4)OCCO5)ccc3n2)CC1	11	56*	-1	16	-20	?	-12%	i
15	Cc1nc2c(ccc3nc(NC(=O)Cc4cccc5ccccc45)sc32)s1	-15	-17	-7	/	2	-2	/	/
16	COc1ccc(N(CC(=O)Nc2cccc(C(F)(F)F)c2)S(C)(=O)=O)cc1	-14	/	7	/	/	-9	/	/
17	Cc1c(OCC(=O)NC2CC(C)(C)NC(C)(C)C2)ccc2c1oc(=O)c1ccccc12	-19	72*	-3	54	-17	67*	i	i
18	Cc1c(OCC(=O)NC2CC(C)(C)NC(C)(C)C2)ccc2c3c(c(=O)oc12)CCC3	3	-1	3	33	-2	14	/	/
19	COc1ccc2nc3cc(Cl)ccc3c(Nc3cc(CN4CCCC4)c(O)c(CN4CCCC4)c3)c2n1	-1	101*	7	/	5	124*	3.7µM*	4µM*
20	C[C@@H]1CN([C@@H](C)CO)S(=O)(=O)c2ccc(Br)cc2O[C@H]1CN(C)C(=O)CC1CC1	-6	2	4	2	-6	-2	/	/

# Quoted at random: 5 records from the list, in no set order.
entry	Structure	Yeast UUG start	RAD52 anneal inh	PglD DTNB	INS-1E GSIS act	Casp6 inh	RAD54 inh	DNA binding	RAD52 DNA ctr
1	COc1ccc(Nc2c3ccccc3nc3ccccc23)cc1	3	73*	0	25	1	101*	27µM*	11µM*
9	COc1nc(NCCc2ccc(OC)c(OC)c2)nc(OC)n1	-8	/	4	/	/	3	/	/
20	C[C@@H]1CN([C@@H](C)CO)S(=O)(=O)c2ccc(Br)cc2O[C@H]1CN(C)C(=O)CC1CC1	-6	2	4	2	-6	-2	/	/
12	CCOC(=O)c1ccc2ncc(C(=O)OCC)c(Nc3ccc(N4CCOCC4)cc3)c2c1	/	-3	/	13	2	/	/	/
11	CCOC(=O)c1cnc2ccc(OC)cc2c1Nc1ccc(N2CCN(C)CC2)cc1	-5	88*	-9	-7	-25	72*	4%	i

# Following part
entry	Structure	Yeast UUG start	RAD52 anneal inh	PglD DTNB	INS-1E GSIS act	Casp6 inh	RAD54 inh	DNA binding	RAD52 DNA ctr
21	O=C(NCc1ccccc1)c1cc(-c2ccncc2)nc2ccccc12	-6	-9	4	-1	1	5	/	/
22	Cc1ccc(-c2nc(NCc3ccco3)c3ccccc3n2)cc1	/	-80	/	1	-2	/	/	/
23	Cc1cccc(-c2nc(NCCCN(C)C)c3ccccc3n2)c1	3	84*	1	2	-152	82*	-21%	i
24	CN(C)CCNc1cc(-c2ccncc2)nc2ccccc12	-4	80*	5	10	-38	57*	0%	i
25	CN(C)CCCNc1ncnc2sc(-c3ccccc3)cc12	-5	68*	-6	6	-26	64*	-18%	?
26	Cc1ccc(-c2nc(NCCN(C)C)c3ccccc3n2)cc1	-6	71*	-1	12	-20	78*	-20%	i
27	CCNC(=O)C[C@@H]1CC[C@H]2[C@H](COc3ccc(NC(=O)Nc4cccc(F)c4)cc3C(=O)N2C)O1	14	-1	-2	12	0	-9	/	/
28	O=S1(=O)C=C(N2CCOCC2)c2ccccc21	0	/	2	/	/	-12	/	/
29	CN(C)CCCNc1c2c(nc3ccccc13)CCC2	5	78*	3	11	-112	67*	-17%	i
30	COc1ccc(CCNC(=O)c2cc3c(=O)n4ccccc4nc3n(CCCN3CCOCC3)c2=N)cc1OC	22	54*	2	14	-11	?	14%	i
31	Cc1cccn2c(=O)c3cc(C(=O)NCCN4CCOCC4)c(=N)n(CCCN4CCOCC4)c3nc12	-20	78*	3	-9	-32	92*	8%	i
32	Cc1cccn2c(=O)c3cc(C(=O)NCC4CCCO4)c(=N)n(CCN4CCOCC4)c3nc12 (configuration not stated)	-9	20	5	/	0	42	/	/
33	Cc1ccc2nc3c(c(N)c2c1)CCN3C	4	42	-2	24	2	61*	-10%	i
34	CCN(CC)Cc1cc2[nH]c3c4ccc(Cl)cc4ncc3c2cc1OC	-8	102*	-10	12	-29	101*	6%	i
35	O=C(O)CCC(=O)Nc1sc2c(c1C(=O)NCc1ccccc1)CCCC2	-6	-3	4	8	1	-5	/	/
36	N=c1n(CCN2CCCCC2)c2ccccc2n1CC(=O)c1cccc([N+](=O)[O-])c1	6	75*	1	2	-3	87*	-10%	i
37	C=CCn1c(=N)n(CC(=O)c2cccc([N+](=O)[O-])c2)c2ccccc21	/	-4	/	3	0	/	/	/
38	COc1ncccc1-c1cc2nc(NCCCN(C)C)n(C)c(=O)c2s1	-5	75*	-2	-1	-14	90*	-19%	63µM*
39	CC(C)=C(C)c1cc2nc(NCCCN(C)C)n(C)c(=O)c2s1	-20	8	2	/	-2	7	/	/
40	CN(C)CCCNc1nc2cc(-c3ccc4c(ccn4C)c3)sc2c(=O)n1C	19	96*	-7	-4	-114	54*	0%	i
41	COc1ccc(-c2cc3nc(NCCN4CCCC4)n(C)c(=O)c3s2)cc1OC	2	84*	-5	-5	-73	70*	0%	i
42	COc1cccc(-c2cc3nc(NCCCN(C)C)n(C)c(=O)c3s2)c1	10	79*	-6	12	-31	62*	-2%	?
43	NC(=O)C1CC(=O)N(Cc2ccc3c(c2)OCO3)C(=Nc2ccccc2)S1 (configuration not stated)	-2	-19	6	-1	-2	-2	/	/
